# Assay: Solubility in water
# Conditions: mg per 1 ml water at 25° C.
row,Substance,Solubility [µg/mL]
1,Morpholine combretastatin A-4 3′-O-phosphate [Compound 5h],9000
2,Calcium combretastatin A-4 3′-O-phosphate [Compound 5a],2000
3,Piperazine combretastatin A-4 3′-O-phosphate [Compound 5i],1000
4,Lithium combretastatin A-4 3-O-phosphate [Compound 5c],6000
5,Adenosine combretastatin A-4 3′-O-phosphate [Compound 5m],4000
6,Pyrazole combretastatin A-4 3-O-phosphate [Compound 5k],8000
